Data from PubChem BioAssay AID504651 (National Center for Advancing Translational Sciences (NCATS), 2011).
Where “and” joins values, the source holds several entries; their conditions need not be identical. Identical values can stand only once. The entries are a selection whose mix differs from that of the whole data set. Some tests of the compounds listed are not included; inactive here does not mean inactive elsewhere. Calls of active or inactive are those of the source. Cut-off read from the data, not from the text of the source: active = potentiation above about 30%; inactive = the rest.

Protein sequences, listed by entry. Tags and fused reporters are not part of them.
UniProt P21728, whole entry: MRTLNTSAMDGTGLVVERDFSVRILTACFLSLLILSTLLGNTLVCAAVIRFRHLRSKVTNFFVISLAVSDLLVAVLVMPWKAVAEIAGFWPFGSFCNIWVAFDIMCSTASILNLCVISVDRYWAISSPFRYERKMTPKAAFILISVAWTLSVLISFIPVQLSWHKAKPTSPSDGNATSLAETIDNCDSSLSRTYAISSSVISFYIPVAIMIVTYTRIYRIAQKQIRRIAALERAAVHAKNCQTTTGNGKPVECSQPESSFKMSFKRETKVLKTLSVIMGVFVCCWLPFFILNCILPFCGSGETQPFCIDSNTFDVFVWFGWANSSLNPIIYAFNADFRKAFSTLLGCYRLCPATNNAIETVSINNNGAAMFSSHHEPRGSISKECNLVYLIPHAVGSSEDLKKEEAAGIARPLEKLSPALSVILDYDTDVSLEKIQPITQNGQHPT

Molecular target: D(1A) dopamine receptor (Homo sapiens) (UniProt P21728)
Assay: Potentiators of Human D1 Dopamine Receptor: qHTS; note: 0% is about no effect
Details: HEK293 TREx D1 cells, calcium flux, dopamine EC20 potentiation; at 10 µM; active compounds read high
Text: Dopamine receptors (DARs) are involved in the etiology and/or therapy of a number of neuropsychiatric and endocrine disorders. For instance, all receptor-based antiparkinsonian drugs work via stimulating the D1 DAR subtype whereas all FDA-approved antipsychotic agents are antagonists of this receptor. […] There are three different types of allosteric modulators that we are seeking, two of which will stimulate or augment receptor signaling, allosteric agonists and potentiators, while the third, allosteric antagonists, will attenuate receptor signaling. The present primary screening assay measures compound potentiation of an EC20 dopamine response by tracking calcium flux in a […], inducible Hek293 Trex D1 cell line.
NIH Chemical Genomics Center [NCGC]
NIH Molecular Libraries Probe Centers Network [MLPCN]
Assay Submitter (PI): David Sibley
Freshly passaged cells are plated in 1536 well black, clear bottom plates at a density of 4000 cells/well in 3 ul of complete media containing 1x tetracycline inducer. After an overnight incubation at 30 C in 5% CO2, cells are loaded with 2 ul of the no wash Calcium Assay Kit (ABD Bioquest) and incubated at room temperature for 30 to 90 minutes. A 10 cycle (1 second/cycle) baseline measurement is taken and then the FDSS online 1536 pintool delivers 23 nl of compound library (as well as dopamine controls) to the plate. The plate is measured for kinetically at 1 cycle/sec for 180 seconds and is considered to be the agonist portion of the assay (eg, compounds which activate a positive calcium response during this portion are flagged as potential agonists). Following the 180 second read, 1 ul of an EC20 of dopamine is delivered by an onboard pipette head. Measurements are taken kinetically for an additional 180 seconds.

Question: With `O=C(NCC1(N2CCCCC2)CCCCC1)c1cc([N+](=O)[O-])ccc1Cl` as the compound, how does the potentiation read?
Answer: Its potentiation is inactive: -3.15%.

Question: `CN1[C@@H]2CC[C@H]1CC(OC(=O)C(O)(c1ccccc1)c1ccccc1)C2` (some centres undefined) was tested. Which potentiation did it give?
Answer: The potentiation was inactive: -4.15%.

Question: Which potentiation does the source give for `CC(C)N1C(=O)CC2(CCN(CCOC(=O)C(O)(c3ccccc3)c3ccccc3)CC2)C1=O` here?
Answer: The potentiation was inactive: 10.6%.

Question: With `COc1cc(SC)ccc1C(=O)NCC1(N(C)C)CCCCC1` as the compound, how does the potentiation read?
Answer: The potentiation was inactive: -10.2%.

Question: With `CCN(CC)CC(C)C(C)OC(=O)C(O)(c1ccccc1)c1ccccc1` (centres undefined) as the compound, how does the potentiation read?
Answer: The potentiation was inactive: -5%.

Question: With `CN(C)C1(CNC(=O)c2cccc(Cl)c2)CCCCC1` as the compound, how does the potentiation read?
Answer: Its potentiation is inactive: 0.75%.

Question: With `CN(C)C1(CNC(=O)c2ccccc2F)CCCCC1` as the compound, how does the potentiation read?
Answer: The potentiation was inactive: 1.25%.

Question: With `Cc1ccc(C(=O)NCC2(N3CCCCC3)CCCCC2)cc1` as the compound, how does the potentiation read?
Answer: The potentiation was inactive: -3.15%.

Question: `CN(C)C1CCCC1OC(=O)C(O)(c1ccccc1)c1ccccc1` (centres undefined) was tested. Which potentiation did it give?
Answer: The potentiation was inactive: -3.35%.

Question: With `CN(C)c1ccc(C(=O)NCC2(N(C)C)CCCCC2)cc1` as the compound, how does the potentiation read?
Answer: The potentiation was inactive: 1.05%.

Question: Which potentiation does the source give for `CN(C)C1(CNC(=O)c2ccccc2[N+](=O)[O-])CCCCC1` here?
Answer: Its potentiation is inactive: 0.25%.

Question: Which potentiation does the source give for `Cc1ccccc1C(=O)NCC1(N2CCCCC2)CCCCC1` here?
Answer: The potentiation was inactive: -0.75%.

Question: For `CCCCOc1ccccc1C(=O)NCC1(N(C)C)CCCCC1`, which potentiation is on record?
Answer: Its potentiation is inactive: -0.05%.

Question: `O=C(NCC1(N2CCCCC2)CCCCC1)c1cc(F)c(F)cc1Cl` was tested. Which potentiation did it give?
Answer: Its potentiation is inactive: -2.6%.

Question: How did the potentiation turn out when `C=CCN1CCN(CCOC(=O)C(O)(c2ccccc2)c2ccccc2)CC1` was run?
Answer: Its potentiation is inactive: -1.9%.

Question: How did the potentiation turn out when `O=C(NCC1(N2CCCCC2)CCCCC1)c1cccc(Br)c1` was run?
Answer: The potentiation was inactive: -2.55%.

Question: Which potentiation does the source give for `Cc1cc(C(=O)NCC2(N3CCCCC3)CCCCC2)ccc1[N+](=O)[O-]` here?
Answer: Its potentiation is inactive: 1.95%.

Question: For `CCN1CCCC(OC(=O)C2(O)c3ccccc3C=Cc3ccccc32)C1` (centres undefined), which potentiation is on record?
Answer: The potentiation was inactive: -2.8%.

Question: How did the potentiation turn out when `CCOc1cccc(C(=O)NCC2(N(C)C)CCCCC2)c1` was run?
Answer: The potentiation was inactive: -0.15%.

Question: With `COc1ccc(C(=O)NCC2(N(C)C)CCCCC2)cc1` as the compound, how does the potentiation read?
Answer: Its potentiation is inactive: -6.05%.

Question: For `CN(C)C1(CNC(=O)c2ccc(Br)cc2)CCCCC1`, which potentiation is on record?
Answer: The potentiation was inactive: -1.7%.

Question: Which potentiation does the source give for `COc1cc(C(=O)NCC2(N(C)C)CCCCC2)c([N+](=O)[O-])cc1OC` here?
Answer: Its potentiation is inactive: -1.55%.

Question: How did the potentiation turn out when `COc1ccc(C(=O)NCC2(N(C)C)CCCCC2)cc1Cl` was run?
Answer: The potentiation was inactive: 0.2%.

Question: For `COc1ccc(Cl)cc1C(=O)NCC1(N(C)C)CCCCC1`, which potentiation is on record?
Answer: Its potentiation is inactive: 7.2%.

Question: Which potentiation does the source give for `COc1cccc(C(=O)NCC2(N3CCCCC3)CCCCC2)c1` here?
Answer: Its potentiation is inactive: -5.24%.

Question: Which potentiation does the source give for `O=C(NCC1(N2CCCCC2)CCCCC1)c1cccc(Cl)c1` here?
Answer: Its potentiation is inactive: -2.4%.

Question: Which potentiation does the source give for `O=C(OC1CN2CCC1CC2)C(CO)(c1ccccc1)c1ccccc1` (centres undefined) here?
Answer: The potentiation was inactive: 4.35%.

Question: Which potentiation does the source give for `COc1cccc(C(=O)NCC2(N3CCOCC3)CCCCC2)c1` here?
Answer: The potentiation was inactive: 2.6%.

Question: Which potentiation does the source give for `CC(C)COc1ccc(C(=O)NCC2(N(C)C)CCCCC2)cc1` here?
Answer: Its potentiation is inactive: -0.55%.

Question: `COc1ccc(Br)c(C(=O)NCC2(N3CCCCC3)CCCCC2)c1` was tested. Which potentiation did it give?
Answer: The potentiation was inactive: -0.15%.

Question: With `Cc1cccc(C(=O)NCC2(N(C)C)CCCCC2)c1` as the compound, how does the potentiation read?
Answer: The potentiation was inactive: 0.7%.

Question: Which potentiation does the source give for `COc1cc(C(=O)NCC2(N(C)C)CCCCC2)cc(OC)c1OC` here?
Answer: Its potentiation is inactive: 1.5%.

Question: `CN(C)c1cccc(C(=O)NCC2(N(C)C)CCCCC2)c1` was tested. Which potentiation did it give?
Answer: Its potentiation is inactive: -3.45%.

Question: Which potentiation does the source give for `CC(C)Oc1ccc(C(=O)NCC2(N(C)C)CCCCC2)cc1` here?
Answer: The potentiation was inactive: -1% and inactive: -3.5%.
